Literature values as cited in PMC9959096, “Selective α3β4 Nicotinic Acetylcholine Receptor Ligand as a Potential Tracer for Drug Addiction” (International Journal of Molecular Sciences, 2023).
Read-outs that look alike come from different tables or passages of the source.

Protein sequences, listed by entry. Tags and fused reporters are not part of them. Residues count along the entry.
UniProt P30926, 22-498: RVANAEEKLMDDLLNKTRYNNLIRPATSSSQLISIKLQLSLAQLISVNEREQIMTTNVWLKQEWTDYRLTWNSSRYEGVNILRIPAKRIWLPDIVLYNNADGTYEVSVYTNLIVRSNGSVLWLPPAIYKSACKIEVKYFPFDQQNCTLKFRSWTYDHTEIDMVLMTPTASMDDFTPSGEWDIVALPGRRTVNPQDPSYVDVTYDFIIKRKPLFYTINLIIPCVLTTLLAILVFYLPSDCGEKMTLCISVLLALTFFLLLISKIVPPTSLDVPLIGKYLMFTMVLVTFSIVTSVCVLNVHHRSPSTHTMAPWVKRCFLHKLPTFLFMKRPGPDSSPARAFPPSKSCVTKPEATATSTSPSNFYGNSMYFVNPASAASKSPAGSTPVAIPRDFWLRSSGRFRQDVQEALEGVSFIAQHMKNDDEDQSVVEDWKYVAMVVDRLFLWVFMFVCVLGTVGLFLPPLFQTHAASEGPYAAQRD
UniProt P32297, 32-505: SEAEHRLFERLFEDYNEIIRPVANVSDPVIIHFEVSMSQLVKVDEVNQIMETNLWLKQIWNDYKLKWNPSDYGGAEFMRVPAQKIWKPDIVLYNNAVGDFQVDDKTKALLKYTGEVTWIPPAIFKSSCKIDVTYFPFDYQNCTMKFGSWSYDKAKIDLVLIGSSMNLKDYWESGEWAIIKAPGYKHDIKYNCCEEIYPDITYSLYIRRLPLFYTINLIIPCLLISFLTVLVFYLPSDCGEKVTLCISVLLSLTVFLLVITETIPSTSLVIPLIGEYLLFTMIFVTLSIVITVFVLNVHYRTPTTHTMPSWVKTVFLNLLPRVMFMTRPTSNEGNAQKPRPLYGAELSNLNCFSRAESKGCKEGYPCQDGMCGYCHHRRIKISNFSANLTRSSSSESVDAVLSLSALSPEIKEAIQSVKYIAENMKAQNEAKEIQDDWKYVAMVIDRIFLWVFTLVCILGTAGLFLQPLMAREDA

Target: T1, human α3β4 nAChR (Homo sapiens, UniProt P30926+P32297)
T1 construct: expressed in transfected cells
Conditions: cited from earlier work

CN1C2CCCC1CC(Nc1ccccc1Br)C2 (centres unmarked) [AT-1001]
Ki (lead/reference compounds, read-out: Binding Affinity Ki α3β4): 2.6 nM
Ki (selective α3β4 nAChR ligands, read-out: Ki): < 10 nM
